What was measured:
[1] = molecular target: T1, 인간 Ang2 폴리펩타이드 (Human Ang2; R&D systems; Accession # O15123) (human, UniProt O15123 19-496); assay: kinetic values printed as for Biacore T100; the text describes only an ELISA for Ang2
T1 construct: Bought from R&D Systems; also called hAng2
T1 sequence: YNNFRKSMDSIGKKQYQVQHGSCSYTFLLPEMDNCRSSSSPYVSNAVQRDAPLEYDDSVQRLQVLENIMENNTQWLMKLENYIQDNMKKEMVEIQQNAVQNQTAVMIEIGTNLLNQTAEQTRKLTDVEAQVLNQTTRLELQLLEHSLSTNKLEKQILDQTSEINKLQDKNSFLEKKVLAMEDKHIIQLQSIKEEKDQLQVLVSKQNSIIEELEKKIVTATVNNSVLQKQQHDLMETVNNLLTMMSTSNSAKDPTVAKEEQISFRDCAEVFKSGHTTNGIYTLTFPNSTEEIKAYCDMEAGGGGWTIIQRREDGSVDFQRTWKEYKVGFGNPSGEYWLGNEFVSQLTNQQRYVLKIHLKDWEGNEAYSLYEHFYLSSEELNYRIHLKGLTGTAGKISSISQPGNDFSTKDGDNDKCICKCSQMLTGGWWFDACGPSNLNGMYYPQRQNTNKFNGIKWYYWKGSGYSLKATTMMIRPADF

[2] = molecular target: T2, VEGF-C-Fc (#358-MT/CF, R&D Systems); assay: SPR, Biacore T100; bispecific captured by human Fab binder on CM5, VEGF-C-Fc injected
T2 construct: Analyte of the Biacore run as printed; the printed catalogue number may not belong to a VEGF-C product

B1: 항 VEGF-C/항 Ang2 이중 특이 항체 (bispecific antibody)
heavy: EVQLLESGGGLVQPGGSLRLSCAASGFTFSSYDMSWVRQAPGKGLEWVSAISYDNGSTYYADSVKGRFTISRDNSKNTLYLQMNSLRAEDTAVYYCARDPYLARLNTFDYWGQGTLVTVSSASTKGPSVFPLAPCSRSTSESTAALGCLVKDYFPEPVTVSWNSGALTSGVHTFPAVLQSSGLYSLSSVVTVPSSNFGTQTYTCNVDHKPSNTKVDKTVERKCCVECPPCPAPPVAGPSVFLFPPKPKDTLMISRTPEVTCVVVDVSHEDPEVQFNWYVDGVEVHNAKTKPREEQFNSTFRVVSVLTVVHQDWLNGKEYKCKVSNKGLPAPIEKTISKTKGQPREPQVYTLPPSREEMTKNQVSLTCLVKGFYPSDISVEWESNGQPENNYKTTPPMLDSDGSFFLYSKLTVDKSRWQQGNVFSCSVMHEALHNHYTQKSLSLSPGKGGGGSGGGGSEVQLLESGGGLVQPGGSLRLSCAASGFTFSSYDMSWVRLAPGKGLEWVSLISPDSSSIYYADSVKGRFTISRDNSKNTLYLQMNSLRAEDTAVYYCAKDLISFWRGGFDYWGQGTLVTVSSGGGGSGGGGSGSGGSQSVLTQPPSASGTPGQRVTISCSGSSSNIGSNYVNWYQQLPGTAPKLLIYSDSHRPSGVPDRFSGSKSGTSASLAISGLRSEDEADYYCGAWDDSLSGYVFGGGTKLTVLGQ
light: QSVLTQPPSASGTPGQRVTISCSGSSSNIGSNNVSWYQQLPGTAPKLLIYYNSHRPSGVPDRFSGSKSGTSASLAISGLRSEDEADYYCATWDSSLNGYVFGGGTKLTRTVAAPSVFIFPPSDEQLKSGTASVVCLLNNFYPREAKVQWKVDNALQSGNSQESVTEQDSKDSTYSLSSTLTLSKADYEKHKVYACEVTHQGLSSPVTKSFNRGEC
Binder B1 has a Kd [1] of 4 pM, a koff [1] of 5.41e-06 s⁻¹ and a kon [1] of 1.35e+06 M⁻¹ s⁻¹. The Kd [2] was 0.358 nM, the koff [2] was 0.0014 s⁻¹ and the kon [2] was 3.92e+06 M⁻¹ s⁻¹.
